We go through one compound from patent publication US20250049962A1, “NEAR-INFRARED FLUORESCENT CONTRAST BIOIMAGING AGENTS FOR IMAGING OF SENTINEL LYMPH NODES” (Curadel Surgical Innovations, Inc., priority 2021, published 2025).

Each structure is given as a SMILES string. Values after ≈ are worked out from the molar mass of the structure shown.

Data set [1] is described as follows: SLN imaging after footpad injection, NIR fluorescence imaging. In kind it is in vivo. Particulars: 15 minutes post-injection; 5 nmol footpad injection; CD-1 mice. The source says: Neae Infrared fluorescence imaging can be achieved using a number of commercially available imaging systes. For example, the dual-NIR channel FLARE imaging system has been described in detail. It provides simultaneous illumination with white light (400-650 nm) at 40,000 lx, 660 nm NIR Channel 1 excitation at 4 mW/cm^2 and […] NIR Channel 2 excitation at 10 mW/cm^2. Color and two independent NIR fluorescence emission images (≈700 nm for Channel 1 and ≈800 nm for Channel 2) were acquired simultaneously with custom software at rates up to 15 Hz over a 15 cm diameter field of view. NIR fluorescence from Channel 1 was pseudo-colored in red and NIR fluorescence from Channel 2 was pseudo-colored in lime green prior to merger with the color video image. The imaging system was positioned at a distance of 18 inches from the surgical field.
The experimental conditions were: • ICG: Reconstituted in water at 500 μM • SLN700: Reconstituted in 50% ethanol/50% water at 500 μM • CUR-438: Reconstituted in D5W at 500 μM
All foot pad injections and intravenous injections were 10 μL of each of these 500 μM concentrations for a total of 5 nmol per injection. […]
The target tissue was exposed and the SLN was imaged for NIR fluorescence using dual channels [Channel 1 (700 nm) and Channel 2 (800 nm)] of a NIR imaging system.

The conditions of data set [2]: iodide added to a concentration of 1-5%; cited from earlier work.

For the compound `CC1(C)C(/C=C/C=C/C=C/C=C2\N(CCCCS(=O)(=O)O)c3ccc4ccccc4c3C2(C)C)=[N+](CCCCS(=O)(=O)[O-])c2ccc3ccccc3c21` [ICG, indocyanine green, reference compound], the first-tier/second-tier signal-to-background ratio in data set [1] came out at 3.0±0.65. Also, in data set [2], the aqueous solubility is 2500 µg/mL (≈ 3.32 mM).
